Key:
[1] = biological target: FLNA pentapeptide of SEQ ID NO: 1 (Bn-VAKGL) (Homo sapiens, UniProt P21333); experiment: FITC-NLX-based FLNA screening assay (inhibition of FITC-naloxone binding to Bn-VAKGL on streptavidin plates); settings: read-out: Percent Binding Inhibition
mu opiate receptor (MOR) = experiment: MOR agonist activity using [35S]GTPγS binding assay in striatal membranes; format: biochemical; settings: Series C-2

Chains of the proteins cited; added tags and fusions are not shown. Lines headed by an entry give the natural chain unless they say otherwise; changes in a name come on top.
UniProt P21333: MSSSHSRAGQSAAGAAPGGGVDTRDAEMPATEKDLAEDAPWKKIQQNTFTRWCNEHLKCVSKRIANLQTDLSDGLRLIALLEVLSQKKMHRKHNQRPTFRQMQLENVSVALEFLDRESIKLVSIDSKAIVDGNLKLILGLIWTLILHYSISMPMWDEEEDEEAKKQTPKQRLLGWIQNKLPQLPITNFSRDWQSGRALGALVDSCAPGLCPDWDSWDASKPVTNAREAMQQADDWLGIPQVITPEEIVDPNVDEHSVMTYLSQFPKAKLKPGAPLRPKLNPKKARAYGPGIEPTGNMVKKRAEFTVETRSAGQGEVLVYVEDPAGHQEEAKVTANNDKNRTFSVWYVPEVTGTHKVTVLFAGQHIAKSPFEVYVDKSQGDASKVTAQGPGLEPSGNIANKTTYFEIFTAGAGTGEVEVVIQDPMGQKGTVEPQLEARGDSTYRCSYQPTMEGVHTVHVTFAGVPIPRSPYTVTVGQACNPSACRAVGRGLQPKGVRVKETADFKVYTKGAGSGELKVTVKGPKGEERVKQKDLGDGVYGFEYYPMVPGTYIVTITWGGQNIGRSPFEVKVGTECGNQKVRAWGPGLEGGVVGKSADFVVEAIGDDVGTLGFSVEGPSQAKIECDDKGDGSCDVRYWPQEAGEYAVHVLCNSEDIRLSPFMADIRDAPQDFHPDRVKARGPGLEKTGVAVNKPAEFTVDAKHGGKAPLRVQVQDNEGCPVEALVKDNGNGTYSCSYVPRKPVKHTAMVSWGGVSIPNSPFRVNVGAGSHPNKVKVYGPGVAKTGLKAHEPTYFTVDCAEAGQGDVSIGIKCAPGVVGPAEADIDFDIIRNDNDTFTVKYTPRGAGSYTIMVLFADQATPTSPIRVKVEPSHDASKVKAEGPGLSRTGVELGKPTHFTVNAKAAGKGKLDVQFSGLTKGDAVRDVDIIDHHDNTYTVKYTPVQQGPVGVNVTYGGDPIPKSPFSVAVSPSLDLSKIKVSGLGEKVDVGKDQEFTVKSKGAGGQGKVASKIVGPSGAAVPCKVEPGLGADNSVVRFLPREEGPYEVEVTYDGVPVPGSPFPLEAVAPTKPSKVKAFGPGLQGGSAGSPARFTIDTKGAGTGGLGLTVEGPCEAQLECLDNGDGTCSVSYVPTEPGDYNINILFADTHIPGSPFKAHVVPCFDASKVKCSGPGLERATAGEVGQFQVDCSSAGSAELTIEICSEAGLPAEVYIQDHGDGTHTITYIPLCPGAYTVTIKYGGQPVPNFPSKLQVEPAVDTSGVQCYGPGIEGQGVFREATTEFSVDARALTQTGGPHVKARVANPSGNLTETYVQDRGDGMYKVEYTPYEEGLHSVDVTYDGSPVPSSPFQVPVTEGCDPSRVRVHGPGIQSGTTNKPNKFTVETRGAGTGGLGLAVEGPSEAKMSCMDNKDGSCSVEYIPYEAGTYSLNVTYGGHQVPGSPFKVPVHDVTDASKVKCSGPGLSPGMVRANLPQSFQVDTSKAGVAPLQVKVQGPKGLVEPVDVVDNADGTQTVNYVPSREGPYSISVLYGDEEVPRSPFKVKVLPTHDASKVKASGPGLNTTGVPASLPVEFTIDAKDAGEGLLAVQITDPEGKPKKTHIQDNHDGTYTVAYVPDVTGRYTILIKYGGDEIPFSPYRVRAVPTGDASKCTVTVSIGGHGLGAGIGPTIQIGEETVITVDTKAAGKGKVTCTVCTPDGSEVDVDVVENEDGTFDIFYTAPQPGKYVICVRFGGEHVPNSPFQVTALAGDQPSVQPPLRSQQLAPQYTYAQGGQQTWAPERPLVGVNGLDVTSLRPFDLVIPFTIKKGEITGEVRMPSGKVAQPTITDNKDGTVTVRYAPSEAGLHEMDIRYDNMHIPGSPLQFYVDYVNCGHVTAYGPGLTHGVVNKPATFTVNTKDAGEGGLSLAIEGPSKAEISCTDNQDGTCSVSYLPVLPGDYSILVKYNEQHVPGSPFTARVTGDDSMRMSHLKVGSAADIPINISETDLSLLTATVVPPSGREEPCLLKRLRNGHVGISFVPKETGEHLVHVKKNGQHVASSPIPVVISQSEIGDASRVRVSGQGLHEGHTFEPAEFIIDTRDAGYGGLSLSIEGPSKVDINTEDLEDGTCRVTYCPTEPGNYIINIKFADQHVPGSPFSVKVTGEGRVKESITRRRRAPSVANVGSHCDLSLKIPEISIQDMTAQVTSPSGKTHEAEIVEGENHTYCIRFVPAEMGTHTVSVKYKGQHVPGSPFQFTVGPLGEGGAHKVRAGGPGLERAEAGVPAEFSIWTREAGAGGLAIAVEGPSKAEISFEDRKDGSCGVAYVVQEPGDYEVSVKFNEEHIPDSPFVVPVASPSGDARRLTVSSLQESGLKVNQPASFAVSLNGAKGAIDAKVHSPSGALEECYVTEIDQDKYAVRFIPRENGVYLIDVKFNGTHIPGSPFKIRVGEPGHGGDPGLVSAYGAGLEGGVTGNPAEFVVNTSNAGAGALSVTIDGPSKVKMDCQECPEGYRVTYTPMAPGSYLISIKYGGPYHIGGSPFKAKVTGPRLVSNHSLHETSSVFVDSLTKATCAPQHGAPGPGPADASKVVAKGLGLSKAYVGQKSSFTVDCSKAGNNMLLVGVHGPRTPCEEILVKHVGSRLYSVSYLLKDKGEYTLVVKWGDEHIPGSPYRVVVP

Row | Compound | inhibition at 0.01 µM [1] | inhibition at 0.1 µM [1] | inhibition at 1 µM [1] | % DAMGO (0.1 μM) (mu opiate receptor (MOR); 0.1 μM compound, relative to DAMGO) | MOR agonist activity, percent [35S]GTPγS binding at the stated compound concentration (mu opiate receptor (MOR); 0.1 μM compound, [35S]GTPγS binding to Gαo, striatal membranes) | MOR agonist activity, percent [35S]GTPγS binding at the stated compound concentration (mu opiate receptor (MOR); 1 μM compound + 1 μM β-FNA) | % DAMGO + BFNA (mu opiate receptor (MOR); 1 μM compound + β-FNA, relative to DAMGO + BFNA) | % DAMGO (1 μM) (mu opiate receptor (MOR); 1 μM compound, relative to DAMGO) | MOR agonist activity, percent [35S]GTPγS binding at the stated compound concentration (mu opiate receptor (MOR); 1 μM compound, [35S]GTPγS binding to Gαo, striatal membranes)
1 | O=C1CN(Cc2ccccc2)C2(CCN(C3CCCCC3)CC2)N1 [C0137M(P7)] | 42.4% | 49.9% | 61.2% |  |  |  |  |  | 
2 | CC1CCC(C(C)C)C(OCC(O)Cn2ccnc2)C1 (stereo not drawn) [Compound A0039] | 49% | 53.5% | 60.3% |  |  |  |  |  | 
3 | COc1c2c(cc3c1C(CC(=O)Cc1ccccc1F)[N+](C)(C)CC3)OCO2 (stereo not drawn) [Compound B0055] | 63.2% | 68.2% | 73.9% |  |  |  |  |  | 
4 | O=C1CN(Cc2ccccc2)C2(CCN(S(=O)(=O)c3cc(Cl)cc(Cl)c3O)CC2)N1 [Compound C0138M] | 53% | 52% | 59.5% |  |  |  |  |  | 
5 | O=S(=O)(c1ccc(F)cc1)N1CCOC12CCN(CC1CC1)CC2 [F-C0134] | 37.4% | 45.7% | 53.1% | 138.1% | 290.6% | 66.6% | 116.2% | 111.4% | 378.9%

Reference: US10363239B2, “Method for inhibiting growth of cancer cells” (Pain Therapeutics, Inc., priority 2013, dated 2019)
